Measurements as given in PubChem BioAssay (NCI).
This is a selection; strong and weak results do not stand in their true shares.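 Assay: single dose, 48 h. Readout: percent growth (0 = no net growth; negative = cell death). Active: <10.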 The source made the active and inactive calls.

Experiments:
Test in all cases: NCI-60 one-dose screen, 48 h (100 = growth as untreated, 0 = no growth, -100 = all killed)
SN12C renal = details: 10 µM unless noted
UO-31 renal = details: 10 µM unless noted
TK-10 renal = details: 10 µM unless noted
ACHN renal = details: 10 µM unless noted
HL-60(TB) leukemia = details: 10 µM unless noted
CCRF-CEM leukemia = details: 10 µM unless noted
UACC-62 melanoma = details: 10 µM unless noted
HCT-15 colon = details: 10 µM unless noted
HT29 colon = details: 10 µM unless noted
SNB-75 CNS = details: 10 µM unless noted
SNB-19 CNS = details: 10 µM unless noted
U251 CNS = details: 10 µM unless noted
SK-MEL-5 melanoma = details: 10 µM unless noted
LOX IMVI melanoma = details: 10 µM
SK-MEL-28 melanoma = details: 10 µM unless noted
SK-MEL-2 melanoma = details: 10 µM unless noted
EKVX NSCLC = details: 10 µM unless noted
CAKI-1 renal = details: 10 µM unless noted
PC-3 prostate = details: 10 µM unless noted
A498 renal = details: 10 µM unless noted

Measured: growth

O=C(O)Cc1ccc(N(CCCl)CCCl)cc1
inactive: SN12C renal 99.1% | UO-31 renal 90.1% | TK-10 renal 109% | ACHN renal 103% | HL-60(TB) leukemia 96.8% | CCRF-CEM leukemia 88.6%

O=P1(Nc2ncccn2)OC(CCl)=NC1c1ccc(C2N=C(CCl)OP2(=O)Nc2ncccn2)cc1 (configuration not stated)
inactive: UACC-62 melanoma 88.6% | TK-10 renal 97.7% | HL-60(TB) leukemia 93.1%

Nc1cccc2c([As](=O)(O)O)cccc12
inactive: HCT-15 colon 120% | HT29 colon 112% | SNB-75 CNS 80.3% | SNB-19 CNS 97.1% | U251 CNS 108% | SK-MEL-5 melanoma 101% | UACC-62 melanoma 99.1% | LOX IMVI melanoma 108% | SK-MEL-28 melanoma 122% | SK-MEL-2 melanoma 129% | EKVX NSCLC 109% | SN12C renal 100% | UO-31 renal 96.1% | TK-10 renal 122% | ACHN renal 110% | CAKI-1 renal 97% | HL-60(TB) leukemia 116% | CCRF-CEM leukemia 54.7%

Cc1ccc(S(=O)(=O)CN(CCCl)CCCl)cc1
inactive: HCT-15 colon 99.2% | HT29 colon 128% | SNB-75 CNS 83.1% | SNB-19 CNS 108% | PC-3 prostate 100% | SK-MEL-5 melanoma 103% | UACC-62 melanoma 93.7% | LOX IMVI melanoma 99.7% | SK-MEL-28 melanoma 103% | SN12C renal 103% | UO-31 renal 83.4% | TK-10 renal 126% | ACHN renal 98.7% | CAKI-1 renal 101% | A498 renal 101% | HL-60(TB) leukemia 105% | CCRF-CEM leukemia 99.7%

CCOP(=S)(OCC)SCCCl
inactive: HCT-15 colon 95.1% | HT29 colon 115% | SNB-75 CNS 82.6% | SNB-19 CNS 98.8% | PC-3 prostate 102% | SK-MEL-5 melanoma 103% | UACC-62 melanoma 101% | LOX IMVI melanoma 101% | SK-MEL-28 melanoma 108% | SK-MEL-2 melanoma 85.6% | SN12C renal 93.6% | UO-31 renal 98.4% | TK-10 renal 109% | ACHN renal 107% | CAKI-1 renal 99.1% | A498 renal 106% | HL-60(TB) leukemia 104% | CCRF-CEM leukemia 94%
